## Apparent affinities of Ab-14 variants for a coronavirus HR2 peptide

Target peptide (SARS-CoV-2 spike, HR2 region): PDVDLGDISGINAS

Each scFv is VH, a 15-residue (Gly4Ser)3 linker, VL, as in the parent Ab-14, and differs from it in the CDRs of the light chain only.
VH: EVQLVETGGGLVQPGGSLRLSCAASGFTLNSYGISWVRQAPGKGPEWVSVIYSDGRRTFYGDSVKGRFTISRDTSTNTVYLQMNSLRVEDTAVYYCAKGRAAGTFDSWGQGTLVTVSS
VL: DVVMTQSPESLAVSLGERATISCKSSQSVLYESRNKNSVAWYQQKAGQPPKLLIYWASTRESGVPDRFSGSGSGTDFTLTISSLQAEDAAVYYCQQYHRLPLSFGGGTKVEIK

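Designed CDR sequences, proposed from the first random library and measured here. Their group label is 14L_En_HC (En: ensemble of fine-tuned language models; HC: hill climbing; a sequence that several methods proposed may carry one label only). In AlphaSeq, yeast of one mating type display the scFv and yeast of the other type display the target. Pairs that bind mate more often; barcode pairs of the diploids are counted by sequencing. Scores were corrected for input abundance and mapped to Kd with protein pairs of known affinity run in the same pool. Mating was done six times.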

Each variant is given by its three light chain CDRs, as the data file delimits them; those of the parent are KSSQSVLYESRNKNSVA, WASTRES, QQYHRLPLS. Scale: log10 of Kd in nM, estimated from mating counts; low values are strong binders. The mean shown is taken over the replicates in which the pair was detected. A pair that was not seen in that replicate is written "nd"; this usually means weak binding, but a binder can also be missed. The authors averaged sequences with at least three values out of six and counted those with two or fewer as poor binders. The range of this assay differs from that of the first round, and the authors advise against merging the two. Of ten entries with the parent sequence, four were seen in most replicates (averages 0.34 to 2.37), three in one and three in none, so single entries are noisy. As a blank, each scFv also met three strains without target: over all light chain designs, 4% of these pairings were detected, typically at 2.64 and seldom below 1.59. Also given: how often the same scFv was detected with the empty control strains.

For KLSQYVGGESRNKSSLA | DNETRES | QQYHRLPLS, the assay gave nd, 3.65, 1.76, 1.35, 0.77, 1.54 (mean 1.81; controls 0 of 18).
For IITQSVMQESRNKSNVA | NTSERES | QQYERLPLI, the assay gave 1.60, 1.63, 2.28, 1.66, 1.90, nd (mean 1.81; controls 0 of 18).
For MMSMGYLGGMRAKNNVA | QESTREP | QQYHRLPLI, the assay gave 0.99, 1.61, 1.45, 0.68, 1.69, 0.66 (mean 1.18; controls 2 of 18).
For TISQSAFMESHNKNSVA | DLNVRGS | QQYDRLPLS, the assay gave 0.31, 0.42, 0.13, -0.01, 0.30, 0.40 (mean 0.26; controls 2 of 18).
For KLYNATAMTSSMRNNVA | DLNERER | QQYFRLPLS, the assay gave 1.24, 1.07, 1.04, 0.92, 0.95, 0.77 (mean 1.00; controls 3 of 18).
For KLREVEHVESKQKNNVA | DNSTRES | QDYHRLPLS, the assay gave nd, 1.21, 1.92, 2.32, 2.06, 1.49 (mean 1.80; controls 1 of 18).
For KISQTFNVGTKNKNSLA | EMNTREF | QDYHRLPLS, the assay gave 1.70, 1.76, 1.31, 2.53, 1.30, 1.79 (mean 1.73; controls 1 of 18).
For QLLMATMYGTYNRNSVA | HAETRED | QSYHRLPLS, the assay gave 2.11, 2.48, nd, 1.45, 2.68, 1.86 (mean 2.12; controls 1 of 18).
For TLYDATLMESRNKNPIA | DVSTRPS | QQYHRLPLS, the assay gave 1.19, 0.91, 1.23, 1.12, 1.09, 1.34 (mean 1.15; controls 2 of 18).
For MMSYGWLYGSRNVRNVA | DHETRES | QQYDRLPLS, the assay gave nd, nd, nd, nd, nd, nd (controls 0 of 18).
For NSSGPMMFESRNKNSVA | HASTREE | QQYERLPLA, the assay gave 0.10, -0.02, 0.18, -0.03, -0.15, 0.49 (mean 0.09; controls 0 of 18).
For TISEHAQQESHNKNSVA | DLNVRGS | QQYDRLPLS, the assay gave 0.36, 0.44, 0.46, 0.18, 0.53, 0.49 (mean 0.41; controls 2 of 18).
For KLSMSYRLETEEKNSIA | ELVTRMS | QQYHRLPLS, the assay gave 1.82, 1.59, 1.19, 0.95, 1.33, 1.26 (mean 1.36; controls 0 of 18).
For KLLQVTENMQLNRNSVA | HMSTRED | QQYHSLPLS, the assay gave 1.08, 0.56, 0.27, 0.56, 0.22, 0.66 (mean 0.56; controls 0 of 18).
For KLSQSTNYLSRVMNSVA | DNSTRES | QQYFRLPLS, the assay gave -0.05, -0.07, -0.20, -0.28, 0.01, -0.14 (mean -0.12; controls 0 of 18).
For KLGQAVGYESRNKSRVA | DNSTRES | QQYDRLPLS, the assay gave nd, nd, 2.28, 1.89, nd, nd (mean 2.08; controls 0 of 18).
For HISQSFMTESVHRNSVA | HQSTREQ | QQYDRLPLS, the assay gave 0.60, 0.47, 0.28, 0.23, 0.68, 0.49 (mean 0.46; controls 3 of 18).
For KLSIMHQVESINKSNVA | EMVTRES | QQYDRLPLS, the assay gave 2.24, 2.15, 1.69, 2.67, 1.94, 2.20 (mean 2.15; controls 3 of 18).
For TISQSTYWESFNKNSVA | QTSTRME | QDYDRLPLS, the assay gave nd, 2.50, 2.96, nd, nd, nd (mean 2.73; controls 2 of 18).
For TLSDVMHMESRNVNSVA | DLVKRES | QQYHRLPLS, the assay gave 1.04, 0.70, 0.15, -0.03, 0.44, 0.32 (mean 0.44; controls 1 of 18).
For IISQVDAYESRQKNSIA | DQSTRGS | QQYDRLPLS, the assay gave 0.49, 0.68, 0.76, 0.51, 0.62, 1.00 (mean 0.68; controls 1 of 18).
For QITQLVGYGQRNKNSVA | QMETREN | QQYDRLPLS, the assay gave 1.05, 0.95, 0.70, 0.60, 0.71, 0.62 (mean 0.77; controls 2 of 18).
For TIGQMFNGESRIRNSVA | QASTREP | QSYDRLPLS, the assay gave nd, 2.02, 2.77, 1.26, 1.04, 2.39 (mean 1.90; controls 1 of 18).
For HISQSFMTESVWRNSVA | HQSTREQ | QQYDRLPLS, the assay gave 1.03, 0.81, 0.81, 0.43, 0.75, 1.24 (mean 0.84; controls 2 of 18).
For KLYQNVGTMSHNKQSIA | DMERRED | QQYHRLPLS, the assay gave 0.52, 0.34, 0.21, 0.51, 0.17, 0.20 (mean 0.33; controls 1 of 18).
For KLSMSMLMESRHKNSVA | ENSTRES | QHYHRLPLS, the assay gave 1.03, 2.38, 2.88, nd, 3.07, 1.93 (mean 2.26; controls 0 of 18).
For HISMSVGLTSFHKNSVA | ENSTREN | QQYDRLPLS, the assay gave 1.13, nd, nd, 2.03, nd, 2.27 (mean 1.81; controls 2 of 18).
For KIGLGTNGEKFQSNSVA | QTSTREE | QQYHRLPLS, the assay gave 0.47, 0.21, 0.35, -0.01, 0.00, 0.34 (mean 0.23; controls 1 of 18).
For MLSDLVKGGVRNTNSVA | DNSTRGS | QQYDRLPLS, the assay gave 1.16, 1.35, 1.43, 1.57, 1.64, 1.93 (mean 1.51; controls 3 of 18).
For KISMLQRYESQAKNSIA | EMSRREE | QQYHRLPLS, the assay gave 0.24, 0.14, 0.01, 0.09, 0.06, 0.09 (mean 0.11; controls 2 of 18).
For KLGQMTGIQSHNKNSLA | DANRRES | QQYHRLPLS, the assay gave 0.19, 0.02, 0.13, -0.06, -0.07, 0.22 (mean 0.07; controls 1 of 18).
For HLAESAHMESRNKNSVA | DNSTRES | QHYDRLPLS, the assay gave nd, 2.29, 0.97, 2.74, 3.57, 2.62 (mean 2.44; controls 2 of 18).
For KISMLYNYANTNKNSIA | EMTTRES | QHYHRLPLS, the assay gave 1.96, 0.43, 0.77, -0.07, 0.76, 0.38 (mean 0.71; controls 1 of 18).
For NISQMFLMETKNVNNVA | QTSTREE | QDYHRLPLS, the assay gave 0.00, -0.09, -0.01, 0.04, -0.23, 0.00 (mean -0.05; controls 3 of 18).
For HMSQVTMYGYWAKNSVA | QTSTREE | QQYDRLPLS, the assay gave 1.06, 0.52, 0.40, 1.28, 0.56, 1.12 (mean 0.82; controls 0 of 18).
For MISQLFMYGSRNYNSIA | QAEQREK | QQYDRLPLE, the assay gave 1.95, 1.29, 2.26, 0.87, 0.96, 1.03 (mean 1.39; controls 1 of 18).
For SLMQVGGYESNYKNSIA | DLRTRES | QQYHRLPLS, the assay gave 0.45, 0.42, 0.44, 0.37, 0.48, 0.59 (mean 0.46; controls 1 of 18).
For HLSDTVMQGSYYKNSVA | QEQTRAD | QQYHRLPLS, the assay gave 0.04, 0.09, 0.09, 0.02, -0.05, 0.10 (mean 0.05; controls 0 of 18).
For IISQVDAYESRNKNSIA | DQSSRGS | QQYDRLPLS, the assay gave 1.49, 0.96, 0.71, 1.31, 0.92, 1.27 (mean 1.11; controls 0 of 18).
For HISQMVMYGSCNKNNVA | QVTLRGE | QQYHRLPLS, the assay gave 1.39, 0.89, 0.91, 1.14, 1.01, 1.13 (mean 1.08; controls 3 of 18).
For MFSQLTYTGSRARNAVA | QAETREN | QQYHHLPLS, the assay gave 1.27, 1.30, 1.39, 1.12, 1.11, 0.90 (mean 1.18; controls 0 of 18).
For MINGSVMSESRLKNSVA | QTTTRES | QQYDRLPLS, the assay gave 1.41, 1.39, 1.29, 1.32, 1.43, 1.92 (mean 1.46; controls 0 of 18).
For MIAAGLRGVGRNKNSVA | NAQMRES | QHYHRLPLS, the assay gave nd, 1.72, 2.10, 2.42, 3.63, 2.47 (mean 2.47; controls 1 of 18).
For KLLESIHVESKQKNNVA | DNSTRES | QDYHRLPLS, the assay gave 2.97, 2.70, 3.08, nd, 2.36, 2.87 (mean 2.80; controls 2 of 18).
For KLSATYRYESNNKNNIA | EMTTRES | QCYHRLPLS, the assay gave 1.36, 1.04, 1.02, 1.14, 1.10, 1.09 (mean 1.12; controls 2 of 18).
For HLSQTTDLESVHKNSIA | DLMTRES | QQYHRLPLS, the assay gave 0.14, 0.27, 0.14, 0.05, 0.00, 0.42 (mean 0.17; controls 2 of 18).
For HLGGLMTWEEKGRNSVA | QQETRAE | QQYHHLPLS, the assay gave 0.43, 0.38, 0.21, 0.18, 0.37, 0.23 (mean 0.30; controls 0 of 18).
For IIGGSMLMESRNKNSVA | NAETREY | QHYDRLPLS, the assay gave 0.96, 1.13, 1.26, 0.84, 0.88, 1.06 (mean 1.02; controls 1 of 18).

A selection of 8 entries from above:

CDR-L1,CDR-L2,CDR-L3,"replicates, log10 nM","log10 Kd (nM), mean",control signals
KLGQMTGIQSHNKNSLA,DANRRES,QQYHRLPLS,"0.19, 0.02, 0.13, -0.06, -0.07, 0.22",0.07,1/18
KLLQVTENMQLNRNSVA,HMSTRED,QQYHSLPLS,"1.08, 0.56, 0.27, 0.56, 0.22, 0.66",0.56,0/18
HISQSFMTESVWRNSVA,HQSTREQ,QQYDRLPLS,"1.03, 0.81, 0.81, 0.43, 0.75, 1.24",0.84,2/18
KLREVEHVESKQKNNVA,DNSTRES,QDYHRLPLS,"nd, 1.21, 1.92, 2.32, 2.06, 1.49",1.80,1/18
HLSQTTDLESVHKNSIA,DLMTRES,QQYHRLPLS,"0.14, 0.27, 0.14, 0.05, 0.00, 0.42",0.17,2/18
TISQSTYWESFNKNSVA,QTSTRME,QDYDRLPLS,"nd, 2.50, 2.96, nd, nd, nd",2.73,2/18
NISQMFLMETKNVNNVA,QTSTREE,QDYHRLPLS,"0.00, -0.09, -0.01, 0.04, -0.23, 0.00",-0.05,3/18
KLYQNVGTMSHNKQSIA,DMERRED,QQYHRLPLS,"0.52, 0.34, 0.21, 0.51, 0.17, 0.20",0.33,1/18

The measurements come from Li et al. 2023 (doi:10.1038/s41467-023-39022-2) through the FLAb antibody collection.